The data set is classed as in vitro ADME.
Where [1] appears, read: PAMPA Pe, 1% lecithin in n-dodecane, PBS with 5% DMSO, 25° C., 18 hours, corrected to 1NMe3 standard.
The mark [2] stands for this setting: PAMPA Pe, 1% lecithin in n-dodecane, PBS with 5% DMSO, 25° C., 18 hours, corrected on 1NMe3 standard.

Here are results for 86 substances from US11001609B2, “Cell permeable cyclic peptide scaffolds” (priority 2017, dated 2021).

Where two headings read alike, the source gives them in different places.

As to LA02, 1, M1, p, M1, F [Compound 707], the “Permeability Value” was found to be 6.603 ×10⁻⁶ cm/s.

Consider Ma, LA08, BHF, p, M1, F [Compound 947], for which the “Permeability Value” under setting [1] worked out at 2.459 ×10⁻⁶ cm/s.

With A, LA08, M1, P, LA08, F [Compound 397], the “Permeability Value” stood at 11.94 ×10⁻⁶ cm/s.

Consider LA02, M1, BHF, P, M1, F [Compound 582], for which the “Permeability Value” came to 8.802 ×10⁻⁶ cm/s.

BHF, LA08, M1, p, 1, F [Compound 546]: the “Permeability Value” under setting [2] was determined as 9.565 ×10⁻⁶ cm/s.

For the substance a, LA08, M1, P, L***, F [Compound 288], the “Permeability Value” turned out to be 14.36 ×10⁻⁶ cm/s.

For the substance BHF, M1, BHF, p, M1, F [Compound 504], the “Permeability Value” was found to be 10.39 ×10⁻⁶ cm/s.

Consider LA02, 1, M1, P, M1, F [Compound 113], for which the “Permeability Value” came to 19.52 ×10⁻⁶ cm/s.

For the substance A, LA08, 1, P, LA08, F [Compound 696], the “Permeability Value” is 6.812 ×10⁻⁶ cm/s.

As for LA02, 1, M1, P, M1, F [Compound 778], the “Permeability Value” was 5.292 ×10⁻⁶ cm/s.

Take LA02, M1, BHF, p, M1, F [Compound 758]: the “Permeability Value” came out at 5.604 ×10⁻⁶ cm/s.

Take “BHF, M1, LA08, P, LA08, F [Compound 1036]”: under setting [1], the “Permeability Value” turned out to be 0.7632 ×10⁻⁶ cm/s.

On to Ma, LA08, 1, p, ML***, F [Compound 355], for which the “Permeability Value” worked out at 13.05 ×10⁻⁶ cm/s.

“MA, ML***, BHF, p, LA08, F [Compound 649]”: the “Permeability Value” under setting [2] stood at 7.608 ×10⁻⁶ cm/s.

A, LA08, M1, p, L***, F [Compound 34]: the “Permeability Value” is 25.56 ×10⁻⁶ cm/s.

Regarding a, LA08, M1, P, L***, F [Compound 292], the “Permeability Value” is 14.29 ×10⁻⁶ cm/s.

Turning to “LA02, LA08, ML***, P, 1, F [Compound 627]”, the “Permeability Value” under setting [2] is 8.019 ×10⁻⁶ cm/s.

Regarding “A, LA08, L***, P, LA08, F [Compound 368]”, the “Permeability Value” amounted to 12.76 ×10⁻⁶ cm/s.

Take “LA02, LA08, LA08, P, L***, F [Compound 676]”: the “Permeability Value” was found to be 7.16 ×10⁻⁶ cm/s.

With “LA02, ML***, BHF, p, 1, F [Compound 558]”, the “Permeability Value” under setting [2] stood at 9.24 ×10⁻⁶ cm/s.

Consider “LA02, LA08, LA08, P, L***, F [Compound 842]”, for which the “Permeability Value” amounted to 4.141 ×10⁻⁶ cm/s.

On to LA02, LA08, 1, p, M1, F [Compound 541], for which the “Permeability Value” under setting [2] came to 9.632 ×10⁻⁶ cm/s.

With “LA02, M1, LA08, p, LA08, F [Compound 644]”, the “Permeability Value” under setting [2] stood at 7.689 ×10⁻⁶ cm/s.

For “LA02, 1, ML***, P, LA08, F [Compound 438]”, the “Permeability Value” under setting [2] was 11.32 ×10⁻⁶ cm/s.

On to “BHF, ML***, ML***, P, LA08, F [Compound 986]”, for which the “Permeability Value” was 1.771 ×10⁻⁶ cm/s.

Consider a, LA08, M1, P, LA08, F [Compound 811], for which the “Permeability Value” stood at 4.888 ×10⁻⁶ cm/s.

Consider “LA02, 1, ML***, p, ML***, F [Compound 535]”, for which the “Permeability Value” under setting [2] amounted to 9.74 ×10⁻⁶ cm/s.

For “LA02, ML***, LA08, P, LA08, F [Compound 682]”, the “Permeability Value” under setting [2] came to 7.036 ×10⁻⁶ cm/s.

As to “LA02, M1, L***, P, LA08, F [Compound 485]”, the “Permeability Value” under setting [2] worked out at 10.65 ×10⁻⁶ cm/s.

“BHF, LA08, M1, P, LA08, F [Compound 908]”: the “Permeability Value” under setting [1] came out at 3.097 ×10⁻⁶ cm/s.

Take a, LA08, LA08, p, 1, F [Compound 667]: the “Permeability Value” stood at 7.302 ×10⁻⁶ cm/s.

Regarding “A, LA08, L***, P, LA08, F [Compound 592]”, the “Permeability Value” stood at 8.615 ×10⁻⁶ cm/s.

On to LA02, M1, 1, P, LA08, F [Compound 886], for which the “Permeability Value” was 3.399 ×10⁻⁶ cm/s.

On to “MA, LA08, L***, p, LA08, F [Compound 1006]”, for which the “Permeability Value” under setting [1] is 1.315 ×10⁻⁶ cm/s.

For LA02, M1, BHF, P, M1, F [Compound 338], the “Permeability Value” was 13.32 ×10⁻⁶ cm/s.

As for a, LA08, M1, P, LA08, F [Compound 552], the “Permeability Value” came out at 9.432 ×10⁻⁶ cm/s.

Consider LA02, M1, BHF, p, M1, F [Compound 923], for which the “Permeability Value” is 2.865 ×10⁻⁶ cm/s.

As for “Ma, LA08, BHF, p, ML***, F [Compound 849]”, the “Permeability Value” under setting [1] was determined as 3.987 ×10⁻⁶ cm/s.

Regarding BHF, M1, BHF, p, M1, F [Compound 628], the “Permeability Value” was 8.011 ×10⁻⁶ cm/s.

As to “BHF, LA08, ML***, P, L***, F [Compound 737]”, the “Permeability Value” under setting [2] came to 6.029 ×10⁻⁶ cm/s.

Consider “BHF, LA08, LA08, p, M1, F [Compound 958]”, for which the “Permeability Value” turned out to be 2.281 ×10⁻⁶ cm/s.

Regarding MA, LA08, 1, p, LA08, F [Compound 755], the “Permeability Value” under setting [2] is 5.628 ×10⁻⁶ cm/s.

As to “a, LA08, BHF, p, ML***, F [Compound 760]”, the “Permeability Value” under setting [2] was found to be 5.596 ×10⁻⁶ cm/s.

For “BHF, LA08, LA08, p, M1, F [Compound 1017]”, the “Permeability Value” is 1.103 ×10⁻⁶ cm/s.

With BHF, M1, BHF, p, M1, F [Compound 992], the “Permeability Value” turned out to be 1.572 ×10⁻⁶ cm/s.

Take Ma, LA08, M1, P, M1, F [Compound 159]: the “Permeability Value” under setting [2] was determined as 17.95 ×10⁻⁶ cm/s.

Consider LA02, 1, BHF, P, L***, F [Compound 276], for which the “Permeability Value” is 14.54 ×10⁻⁶ cm/s.

For “LA02, LA08, BHF, P, L***, F [Compound 710]”, the “Permeability Value” under setting [2] was 6.591 ×10⁻⁶ cm/s.

With “BHF, M1, BHF, P, ML***, F [Compound 1042]”, the “Permeability Value” under setting [1] came to 0.6705 ×10⁻⁶ cm/s.

Turning to “a, LA08, L***, P, LA08, F [Compound 623]”, the “Permeability Value” is 8.048 ×10⁻⁶ cm/s.

Take A, LA08, M1, P, LA08, F [Compound 602]: the “Permeability Value” was 8.379 ×10⁻⁶ cm/s.

On to “BHF, L***, M1, P, LA08, F [Compound 846]”, for which the “Permeability Value” came out at 4.027 ×10⁻⁶ cm/s.

Take “LA02, ML***, BHF, p, LA08, F [Compound 935]”: under setting [1], the “Permeability Value” is 2.631 ×10⁻⁶ cm/s.

On to “LA02, LA08, 1, p, L***, F [Compound 455]”, for which the “Permeability Value” was determined as 11.12 ×10⁻⁶ cm/s.

For “BHF, M1, BHF, P, LA08, F [Compound 1033]”, the “Permeability Value” under setting [1] came to 0.8606 ×10⁻⁶ cm/s.

For LA02, 1, BHF, p, L***, F [Compound 789], the “Permeability Value” came out at 5.163 ×10⁻⁶ cm/s.

As to “LA02, ML***, BHF, p, M1, F [Compound 930]”, the “Permeability Value” was 2.744 ×10⁻⁶ cm/s.

For “MA, LA08, M1, p, LA08, F [Compound 1051]”, the “Permeability Value” under setting [1] amounted to 0.3421 ×10⁻⁶ cm/s.

“LA02, LA08, LA08, p, 1, F [Compound 662]”: the “Permeability Value” turned out to be 7.42 ×10⁻⁶ cm/s.

In the case of BHF, LA08, 1, P, M1, F [Compound 301], the “Permeability Value” came to 14.01 ×10⁻⁶ cm/s.

As for LA02, M1, BHF, p, 1, F [Compound 489], under setting [2], the “Permeability Value” was determined as 10.61 ×10⁻⁶ cm/s.

On to “LA02, LA08, 1, P, LA08, F [Compound 660]”, for which the “Permeability Value” under setting [2] worked out at 7.437 ×10⁻⁶ cm/s.

Consider “LA02, M1, LA08, p, LA08, F [Compound 477]”, for which, under setting [2], the “Permeability Value” was determined as 10.81 ×10⁻⁶ cm/s.

As to “BHF, ML***, LA08, P, 1, F [Compound 668]”, the “Permeability Value” under setting [2] was 7.293 ×10⁻⁶ cm/s.

As to Ma, LA08, 1, p, ML***, F [Compound 463], the “Permeability Value” was determined as 11.01 ×10⁻⁶ cm/s.

“BHF, LA08, L***, p, M1, F [Compound 790]”: the “Permeability Value” under setting [2] was found to be 5.157 ×10⁻⁶ cm/s.

As to LA02, M1, BHF, p, M1, F [Compound 271], the “Permeability Value” was 14.6 ×10⁻⁶ cm/s.

Consider Ma, LA08, 1, P, M1, F [Compound 144], for which the “Permeability Value” was 18.56 ×10⁻⁶ cm/s.

Consider LA02, M1, BHF, p, M1, F [Compound 850], for which the “Permeability Value” came out at 3.944 ×10⁻⁶ cm/s.

With a, LA08, 1, P, LA08, F [Compound 711], the “Permeability Value” came to 6.542 ×10⁻⁶ cm/s.

LA02, 1, BHF, P, LA08, F [Compound 868]: the “Permeability Value” under setting [1] was 3.672 ×10⁻⁶ cm/s.

On to Ma, LA08, M1, P, L***, F [Compound 131], for which, under setting [2], the “Permeability Value” is 18.91 ×10⁻⁶ cm/s.

In the case of “A, ML***, LA08, p, LA08, F [Compound 274]”, the “Permeability Value” is 14.59 ×10⁻⁶ cm/s.

Take LA02, LA08, M1, P, 1, F [Compound 339]: the “Permeability Value” is 13.28 ×10⁻⁶ cm/s.

Take BHF, M1, M1, P, 1, F [Compound 839]: the “Permeability Value” under setting [1] stood at 4.186 ×10⁻⁶ cm/s.

Turning to a, LA08, 1, p, M1, F [Compound 751], the “Permeability Value” under setting [2] came to 5.722 ×10⁻⁶ cm/s.

In the case of “LA02, L***, M1, p, LA08, F [Compound 745]”, the “Permeability Value” under setting [2] is 5.796 ×10⁻⁶ cm/s.

For the substance BHF, M1, M1, P, 1, F [Compound 874], the “Permeability Value” under setting [1] worked out at 3.614 ×10⁻⁶ cm/s.

On to “LA02, LA08, L***, p, LA08, F [Compound 731]”, for which the “Permeability Value” was found to be 6.081 ×10⁻⁶ cm/s.

On to “LA02, L***, ML***, p, LA08, F [Compound 902]”, for which the “Permeability Value” under setting [1] came out at 3.187 ×10⁻⁶ cm/s.

On to LA02, LA08, BHF, P, 1, F [Compound 618], for which the “Permeability Value” under setting [2] was determined as 8.092 ×10⁻⁶ cm/s.

With “LA02, ML***, BHF, P, L***, F [Compound 698]”, the “Permeability Value” was found to be 6.791 ×10⁻⁶ cm/s.

As for LA02, M1, LA08, p, 1, F [Compound 507], the “Permeability Value” under setting [2] was determined as 10.36 ×10⁻⁶ cm/s.

For the substance “BHF, LA08, L***, P, LA08, F [Compound 984]”, the “Permeability Value” under setting [1] worked out at 1.801 ×10⁻⁶ cm/s.

As for “a, LA08, L***, P, LA08, F [Compound 453]”, the “Permeability Value” was 11.13 ×10⁻⁶ cm/s.

For LA02, L***, M1, P, M1, F [Compound 217], under setting [2], the “Permeability Value” worked out at 16.25 ×10⁻⁶ cm/s.
